Data published in patent US8669260B2, “Ketoconazole-derivative antagonist of human pregnane X receptor and uses thereof” (priority 2008, dated 2014).

Tests used:
[1] = test system: HepG2 cells; conditions: 24 hours incubation, especially at 50 μM; data not shown
[2] = test system: PXR target genes in SKOV-3 cells
[3] = test system: SKOV-3 cells; conditions: MTT; 48-96 hr exposure (T1317: 48 hours, normalized to GSK1385)

| Molecule | cytotoxicity in HepG2 cells (in words) [1] | transcription of MDR-1 or MRP-2 genes [2] | SKOV-3 cell survival (in words) [3] |
| --- | --- | --- | --- |
| CC(=O)N1CCN(c2ccc(OCC3COC(Cn4ccnc4)(c4ccc(Cl)cc4Cl)O3)cc2)CC1 (stereo not drawn) [Ketoconazole, ketoconazole] | toxic |  |  |
| rifampicin |  | no increased transcription | significant increase in cell survival |
